For this experiment, the target named is Cannabinoid receptor 1 (Rattus norvegicus, UniProt P20272). The experiment can be described thus: Displacement of [3H]CP-55940 from Cannabinoid receptor 1 of rat forebrain membranes. Type of experiment: cell membranes, Membrane. Background: Displacement assays read how much labelled ligand stays bound in the presence of the test substance.

Protein sequences, listed by entry. Tags and fused reporters are not part of them.
UniProt P20272, whole entry: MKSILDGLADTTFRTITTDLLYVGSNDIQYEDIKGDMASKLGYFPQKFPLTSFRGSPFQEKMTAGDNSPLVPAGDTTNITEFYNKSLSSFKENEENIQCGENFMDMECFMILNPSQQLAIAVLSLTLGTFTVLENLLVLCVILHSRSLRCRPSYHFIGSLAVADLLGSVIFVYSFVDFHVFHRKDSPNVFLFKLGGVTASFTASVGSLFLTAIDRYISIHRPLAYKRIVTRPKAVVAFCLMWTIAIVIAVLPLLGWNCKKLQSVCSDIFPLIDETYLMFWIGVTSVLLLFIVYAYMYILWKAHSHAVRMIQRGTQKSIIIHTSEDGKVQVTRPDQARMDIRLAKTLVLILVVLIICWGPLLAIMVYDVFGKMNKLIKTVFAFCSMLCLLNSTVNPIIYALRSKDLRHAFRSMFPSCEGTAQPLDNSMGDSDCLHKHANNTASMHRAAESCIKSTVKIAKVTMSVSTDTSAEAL

As a reminder, the Ki is the dissociation constant of the complex between target and ligand, obtained from inhibition or displacement. Higher therefore signals weaker binding. The molecule `CCCCC/C=C\C/C=C\C/C=C\C/C=C\CCCC(=O)NCCO` [ANANDAMIDE] returned a Ki of 78 nM.

Consider `CCCCC/C=C\C/C=C\C/C=C\C/C=C\CCCC(=O)N(C)CCO`, for which the Ki was 2460 nM.

The molecule `CCCCC/C=C\C/C=C\C/C=C\C/C=C\CCCC(=O)N(CCO)CCO` gave a Ki of 174 nM.

The record behind these values is ChEMBL document CHEMBL1129747, “Head group analogs of arachidonylethanolamide, the endogenous cannabinoid ligand” (J Med Chem, 1996).
